Assay results published in ChEMBL document CHEMBL3102699, “Synthesis and evaluation of 4-substituted piperidines and piperazines as balanced affinity μ opioid receptor (MOR) agonist/δ opioid receptor (DOR) antagonist ligands” (Bioorg Med Chem Lett, 2014).
Calls of active or inactive are those of the source. The calls are words filed in the database; no cut-off is given here.

Amino acid sequences for entries named in this document (tags omitted). A change or cut given only in a name is not applied to a line headed by its entry.
UniProt P41145: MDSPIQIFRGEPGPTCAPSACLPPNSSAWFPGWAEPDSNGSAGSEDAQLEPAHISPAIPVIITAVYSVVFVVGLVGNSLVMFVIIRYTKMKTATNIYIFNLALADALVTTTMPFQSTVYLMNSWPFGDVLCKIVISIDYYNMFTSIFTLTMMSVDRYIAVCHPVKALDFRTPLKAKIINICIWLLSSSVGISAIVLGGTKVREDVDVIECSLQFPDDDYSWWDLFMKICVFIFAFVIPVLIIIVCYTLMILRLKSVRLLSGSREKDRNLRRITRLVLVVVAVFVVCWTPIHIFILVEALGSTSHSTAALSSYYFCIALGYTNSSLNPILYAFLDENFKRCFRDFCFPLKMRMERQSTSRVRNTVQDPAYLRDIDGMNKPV
UniProt P33535, whole entry: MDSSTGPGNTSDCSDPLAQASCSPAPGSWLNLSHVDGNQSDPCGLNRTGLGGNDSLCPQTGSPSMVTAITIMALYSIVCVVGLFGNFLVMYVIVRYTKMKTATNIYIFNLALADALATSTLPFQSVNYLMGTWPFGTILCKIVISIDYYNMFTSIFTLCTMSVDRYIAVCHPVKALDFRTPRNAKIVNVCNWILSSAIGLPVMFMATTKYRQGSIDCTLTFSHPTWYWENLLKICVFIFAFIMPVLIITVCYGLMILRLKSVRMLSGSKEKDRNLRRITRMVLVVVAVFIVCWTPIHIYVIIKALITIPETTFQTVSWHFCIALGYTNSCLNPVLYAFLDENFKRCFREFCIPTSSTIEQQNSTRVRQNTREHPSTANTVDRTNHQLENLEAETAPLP

Experiments:
[1] = target: Kappa-type opioid receptor (Homo sapiens, UniProt P41145); test: Agonist activity at human kappa opioid receptor expressed in CHO cells assessed as stimulation of [35S]-GTPgammaS binding at 10 uM after 1 hr by liquid scintillation counting analysis relative to U69,593; format: functional, cell-based
[2] = target: Mu-type opioid receptor (Rattus norvegicus) (UniProt P33535); test: Agonist activity at rat mu opioid receptor expressed in rat C6 cells assessed as stimulation of [35S]-GTPgammaS binding at 10 uM after 1 hr by liquid scintillation counting analysis relative to DAMGO; format: functional, cell-based

| Compound | %max [1] | %max [2] |
| --- | --- | --- |
| Cc1cc(O)cc(C)c1C[C@H](N)C(=O)N1CCN(CCC(c2ccccc2)c2ccccc2)CC1 | inactive | inactive |
| Cc1cc(O)cc(C)c1C[C@H](N)C(=O)N1CCN(CCCc2ccccc2)CC1 | inactive |  |
| Cc1cc(O)cc(C)c1C[C@H](N)C(=O)N1CCC(Cc2ccccc2)CC1 | inactive | inactive |
| Cc1cc(O)cc(C)c1C[C@H](N)C(=O)N1CCN(CCCCc2ccccc2)CC1 | 12% |  |
| Cc1cc(O)cc(C)c1C[C@H](N)C(=O)N1CCC(CCCc2ccccc2)CC1 | inactive |  |
| Cc1cc(O)cc(C)c1C[C@H](N)C(=O)N1CCC(Cc2ccccc2)c2ccccc21 (some centres undefined) | inactive | 11% |
